Measurements taken from patent US20240417393A1, “CERTAIN 2,5-DIAZABICYCLO[4.2.0]OCTANES AS GLP-1 RECEPTOR MODULATORS” (ASTRAZENECA AB, priority 2021, published 2024).

Chains of the proteins cited; added tags and fusions are not shown.
UniProt Q14432, whole entry: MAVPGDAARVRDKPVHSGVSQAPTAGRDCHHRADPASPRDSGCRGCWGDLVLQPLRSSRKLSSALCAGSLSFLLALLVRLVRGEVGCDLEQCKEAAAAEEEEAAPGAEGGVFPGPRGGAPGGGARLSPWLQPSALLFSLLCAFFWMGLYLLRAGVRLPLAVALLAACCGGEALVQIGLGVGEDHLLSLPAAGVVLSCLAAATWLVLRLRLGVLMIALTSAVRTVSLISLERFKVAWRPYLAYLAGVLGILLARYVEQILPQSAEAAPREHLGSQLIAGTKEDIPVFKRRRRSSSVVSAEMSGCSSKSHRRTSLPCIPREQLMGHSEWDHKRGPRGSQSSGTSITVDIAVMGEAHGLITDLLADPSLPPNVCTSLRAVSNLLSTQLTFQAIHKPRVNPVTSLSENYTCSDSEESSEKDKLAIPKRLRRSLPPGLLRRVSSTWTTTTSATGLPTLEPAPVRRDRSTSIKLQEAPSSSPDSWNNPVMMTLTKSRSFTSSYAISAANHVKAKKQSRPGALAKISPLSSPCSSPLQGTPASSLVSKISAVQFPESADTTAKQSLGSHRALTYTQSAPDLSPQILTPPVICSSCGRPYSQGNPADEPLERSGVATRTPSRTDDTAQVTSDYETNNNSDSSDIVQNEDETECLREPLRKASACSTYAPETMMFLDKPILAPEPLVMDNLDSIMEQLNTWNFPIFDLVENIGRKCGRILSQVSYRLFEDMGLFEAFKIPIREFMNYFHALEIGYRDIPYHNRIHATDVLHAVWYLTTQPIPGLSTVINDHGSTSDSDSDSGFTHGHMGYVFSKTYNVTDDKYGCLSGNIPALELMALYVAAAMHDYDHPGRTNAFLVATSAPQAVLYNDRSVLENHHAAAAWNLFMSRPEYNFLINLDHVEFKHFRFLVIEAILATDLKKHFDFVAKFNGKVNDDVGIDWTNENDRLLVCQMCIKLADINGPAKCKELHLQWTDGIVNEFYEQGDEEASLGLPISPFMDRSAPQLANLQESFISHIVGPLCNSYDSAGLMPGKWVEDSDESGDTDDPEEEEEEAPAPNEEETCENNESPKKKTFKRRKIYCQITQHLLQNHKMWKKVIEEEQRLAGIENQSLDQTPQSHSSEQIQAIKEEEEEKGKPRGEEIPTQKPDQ

Biological target: human phosphodiesterase-3A (Homo sapiens, UniProt Q14432)
Test: PDE3 Assay ([3H]cAMP to 5'AMP, SPA)
Settings: read-out: PDE3 IC50; human recombinant PDE3A expressed in Sf9 cells; 450 nM cAMP; 20 min at 22° C.
Protocol: Evaluation of the effects of compounds on the activity of the human phosphodiesterase-3A is quantified by measuring the formation of 5′AMP from cAMP using a human recombinant is enzyme expressed in a clonal isolate of Spodoptera frugiperda cells (Sf9) cells.
The test compound, reference compound or water (control) are added to a buffer containing 40 mM tris(hydroxymethyl)aminomethane (Tris)/HCl (pH 7.4) and 8 mM MgCl2, 450 nMcAMP and 0.25 μCi [^3H]cAMP.
Thereafter, the reaction is initiated by addition of the enzyme (about 1U) and the mixture is incubated for 20 min at 22° C.
For basal control measurements, the enzyme is omitted from the reaction mixture.
Following incubation SPA beads are added. After 30 min at 22° C. under shaking, the amount of [^3H]5′AMP is quantified with a scintillation counter (Topcount, Packard).
The results are expressed as a percent inhibition of the control enzyme activity. The standard inhibitory reference compound is milrinone (CAS number 78415-72-2), which is tested in each experiment at several concentrations to obtain an inhibition curve from which its IC50 value is calculated.

Cc1cc(Cc2nc3ccc(C(=O)O)cc3n2C[C@@H]2CCO2)c(F)cc1-c1cccc(OCc2ccc(C#N)cc2F)n1 gave an IC50 of 5 µM.
